# Reference: publication PMC2363125 (British Journal of Cancer, 1999)
# Tested on: L1210 cells
# Conditions: mouse
# From the text: In particular, inhibition of thymidylate synthase (TS) is an attractive target for antimetabolite chemotherapy because thymine is the only nucleobase found exclusively in DNA and TS is a key enzyme, possibly the rate-limiting step, in DNA synthesis. One locus of action of 5-fluorouracil (5-FU), which is widely used for the treatment of colorectal, breast and head-and- neck cancer, is TS inhibition following its intracellular conversion to 5-FdUMP. […] Inhibition of TS results in the depletion of intracellular dTTP and, as a result of elevated dUMP levels, an accummulation of dUTP. […] In addition, release of nucleic acids from dead cells may result in high local concen- trations of salvageable nucleosides and bases in tumours. […] Cell number and viability in each assay was determined by haemocytometer counting using trypan blue exclu- sion. […] The rate of thymidine uptake in the presence and absence of inhibitor was calculated by unweighted linear regres- sion analysis of thymidine uptake (pmol 10-6 cells) vs time (seconds) using GraphPad PRISMTM software (GraphPad Software Inc. San Diego, CA, USA). […] Kt and Tmax values were calculated using the equation describing a one-site binding hyperbola, fitted using GraphPad PRISM software. […] Replicate aliquots of the remaining cell suspension were counted to obtain a time zero cell count.
compound,measurement,value
"OCCN(CCO)c1nc(N2CCCCC2)c2nc(N(CCO)CCO)nc(N3CCCCC3)c2n1 [Dipyridamole, 2,6-bis-(diethanolamino)-4,8-di-piperidino-pyrimidopyrimidine]",LC50 of 5-FU,3.4 M
